From PubChem BioAssay AID743238 (Broad Institute, 2013)
This is a selection; strong and weak results do not stand in their true shares. Some tests of the compounds listed are not included; inactive here does not mean inactive elsewhere. Activity calls are given as the source filed them.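 The calls were made as follows: active = mean normalized replicate activation at least 10% and every replicate at or above 10%; inconclusive = only one of the two criteria met; inactive = mean below 10% and not all replicates reach 10%.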

Assay: activators of inactive X chromosome reactivation, primary screen, imaging, XiGFP fibroblasts, GFP high-content imaging, set 2 (AID 743238);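 also: 0% = median of on-plate neutral control wells and 100% = ellipticine 6 µM median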
Details: XiGFP mouse fibroblasts, % GFP-positive cells imaging, 3 d; at 7.58 µM; active compounds read high; cells co-treated with 5-aza-dC sensitizer; scaled so ellipticine positive control = 100%
How it was run: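 Material: XiGFP fibroblasts, SV40-immortalized; Buffer or medium: DMEM containing 5-aza-dC; Compound dosing: single point; Times: 3 days compound exposure.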

Row | SMILES | activation
1 | CN(C)C1(CNC(=O)c2ccc(Br)cc2)CCCCC1 | inactive: -0.042%
2 | COc1cc(C(=O)NCC2(N(C)C)CCCCC2)c([N+](=O)[O-])cc1OC | inactive: 0.0335%
3 | COc1ccc(Cl)cc1C(=O)NCC1(N(C)C)CCCCC1 | inactive: -0.083%
4 | COc1cccc(C(=O)NCC2(N3CCCCC3)CCCCC2)c1 | inactive: -0.128%
5 | O=C(NCC1(N2CCCCC2)CCCCC1)c1cccc(Cl)c1 | inactive: 0.0185%
6 | COc1ccc(Br)c(C(=O)NCC2(N3CCCCC3)CCCCC2)c1 | inactive: -0.013%
7 | C=C(C)C#CC(O)(C(=O)OC1CCN(C)CC1)c1ccccc1 (stereo not drawn) | inactive: -0.012%
8 | O=C(OCCN1CCCC1)C(O)(c1ccccc1)c1ccccc1 | inactive: 0.214%
9 | CC(C)Oc1ccc(C(=O)NCC2(N(C)C)CCCCC2)cc1 | inactive: -0.045%
10 | O=C(NCC1(N2CCCCC2)CCCCC1)c1cc([N+](=O)[O-])ccc1Cl | inactive: 0.12%
11 | CN1[C@@H]2CC[C@H]1CC(OC(=O)C(O)(c1ccccc1)c1ccccc1)C2 (stereo partly drawn) | inactive: 0.0245%
12 | COc1cc(SC)ccc1C(=O)NCC1(N(C)C)CCCCC1 | inactive: -0.025%
13 | CCN(CC)CC(C)C(C)OC(=O)C(O)(c1ccccc1)c1ccccc1 (stereo not drawn) | inactive: -0.328%
14 | Cc1ccc(C(=O)NCC2(N3CCCCC3)CCCCC2)cc1 | inactive: -0.0425%
15 | CN(C)c1ccc(C(=O)NCC2(N(C)C)CCCCC2)cc1 | inactive: -0.0105%
16 | CN(C)C1CCCC1OC(=O)C(O)(c1ccccc1)c1ccccc1 (stereo not drawn) | inactive: -0.618%
17 | Cc1ccccc1C(=O)NCC1(N2CCCCC2)CCCCC1 | inactive: 0.133%
18 | O=C(NCC1(N2CCCCC2)CCCCC1)c1cc(F)c(F)cc1Cl | inactive: 0.016%
19 | C=CCN1CCN(CCOC(=O)C(O)(c2ccccc2)c2ccccc2)CC1 | inactive: -0.0505%
20 | O=C(NCC1(N2CCCCC2)CCCCC1)c1cccc(Br)c1 | inactive: 0.373%
21 | CCN1CCCC(OC(=O)C2(O)c3ccccc3C=Cc3ccccc32)C1 (stereo not drawn) | inactive: 0.143%
22 | Cc1cc(C(=O)NCC2(N3CCCCC3)CCCCC2)ccc1[N+](=O)[O-] | inactive: 0.516%
23 | COc1ccc(C(=O)NCC2(N(C)C)CCCCC2)cc1 | inactive: -0.0915%
